Tested on: U-87 MG tumor SCID mouse
Settings: female, in vivo

Structure (SMILES): OC[C@H]1OC(O)[C@H](F)[C@@H](O)[C@@H]1O (stereo partly shown) [^18F-FDG, ^18F-fluorodeoxyglucose]
- Accumulation in non-targeted tissues: 1–8 % ID/g

Reference: PMC6651196, “Preclinical Evaluation of Radiolabeled Peptides for PET Imaging of Glioblastoma Multiforme” (Molecules, 2019)
